Reference: patent US20110060009A1, “Hydroxamate-Based Inhibitors of Deacetylases” (NOVARTIS AG, priority 2009, published 2011)

Amino acid sequences for entries named in this document (tags omitted).
UniProt Q13547, whole entry: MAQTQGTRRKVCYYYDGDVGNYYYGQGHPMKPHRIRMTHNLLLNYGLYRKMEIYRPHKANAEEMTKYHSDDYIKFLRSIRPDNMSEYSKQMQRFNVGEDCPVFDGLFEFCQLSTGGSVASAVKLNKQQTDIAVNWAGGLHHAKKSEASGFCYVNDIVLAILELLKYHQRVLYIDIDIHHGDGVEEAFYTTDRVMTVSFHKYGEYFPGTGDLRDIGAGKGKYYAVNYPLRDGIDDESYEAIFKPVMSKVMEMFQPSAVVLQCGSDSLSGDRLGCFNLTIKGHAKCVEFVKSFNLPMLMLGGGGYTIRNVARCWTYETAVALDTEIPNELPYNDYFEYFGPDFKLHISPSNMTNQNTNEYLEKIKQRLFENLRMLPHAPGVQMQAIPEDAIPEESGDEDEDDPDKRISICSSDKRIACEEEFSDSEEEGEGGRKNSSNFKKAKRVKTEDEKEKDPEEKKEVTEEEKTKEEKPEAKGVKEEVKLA

Key:
HCT116 = HCT116 IC50 (Table 2, no method described); format: cell-based; settings: read-out: HCT116 IC50
HDAC-1 = HDAC-1 (Homo sapiens, UniProt Q13547); test: HDAC Inhibition Assay (purified GST-HDAC protein); settings: read-out: HDAC-1 IC50, IC50 normalized to reference inhibitor
Text: The baculovirus donor vector pFB-GSTX3 is used to generate a recombinant baculovirus that expresses the HDAC polypeptide. Transfer vectors containing the HDAC coding region are transfected into the DH10Bac cell line (GIBCO) and plated on selective agar plates. Colonies without insertion of the fusion sequence into the viral genome (carried by the bacteria) are blue. Single, white colonies are picked and viral DNAs (bacmid) are isolated from the bacteria by standard plasmid purification procedures. Sf9 cells or Sf21 (American Type Culture Collection) cells are then transfected in […] flasks with the viral DNA using Cellfectin reagent.
Virus-containing media is collected from the transfected cell culture and used for infection to increase its titer. Virus-containing media obtained after two rounds of infection is used for large-scale protein expression. For large-scale protein expression 100 cm^2 round tissue culture plates are seeded with 5×10^7 cells/plate and infected with 1 mL of virus-containing media (at an approximately MOI of 5). After 3 days, the cells are scraped off the plate and centrifuged at 500 rpm for 5 minutes. Cell pellets from 10-20, 100 cm^2 plates, are re-suspended in 50 mL of ice-cold lysis buffer (25 mM tris-HCl, pH 7.5, 2 mM EDTA, 1% NP-40, 1 mM DTT, 1 mM P MSF). The cells are stirred on ice for 15 minutes and then centrifuged at 5,000 rpms for 20 minutes.
The centrifuged cell lysate is loaded onto a 2 mL glutathione-sepharose column (Pharmacia) and is washed thrice with 10 mL of 25 mM tris-HCl, pH 7.5, 2 mM EDTA, 1 mM DTT, 200 mM NaCl. […]
HDAC assays with purified GST-HDAC protein are carried out in a final volume of 30 μL containing 15 ng of GST-HDAC protein, 20 mM tris-HCl, pH 7.5, 1 mM MnCl2, 10 mM MgCl2, 1 mM DTT, 3 μg/mL poly(Glu,Tyr) 4:1, 1% DMSO, 2.0 μM ATP (γ-[^33P]-ATP 0.1 μCi). […] Membranes are counted after drying at ambient temperature, mounting in Packard TopCount 96-well frame, and addition of 10 μL/well of MICROSCINT™ (Packard). […]
Normalized IC50=measured IC50 average ref. IC50/measured ref. IC50

Row | Structure (SMILES) | IC50 (HCT116) [nM] | IC50 (HDAC-1) [nM]
1 | Cc1[nH]c2ccccc2c1C[C@H]1C[C@H]2CCC[C@H]2N1Cc1ccc(/C=C/C(=O)NO)cc1 | 1.4 | 2
2 | O=C(/C=C/c1ccc(CN2CCC[C@@H]2Cn2cc3ccccc3n2)cc1)NO | 9 | 7
3 | O=C(/C=C/c1ccc(CN2CCC[C@@H]2Cn2ncc3ccccc32)cc1)NO | 1 | 1.8
